Patent publication US20230348426A1, “OXOPYRROLIDINE FPR2 AGONISTS” (Bristol-Myers Squibb Company, priority 2020, published 2023)

The chains behind the UniProt entries cited, without tags or fusion partners.
UniProt P25090, whole entry: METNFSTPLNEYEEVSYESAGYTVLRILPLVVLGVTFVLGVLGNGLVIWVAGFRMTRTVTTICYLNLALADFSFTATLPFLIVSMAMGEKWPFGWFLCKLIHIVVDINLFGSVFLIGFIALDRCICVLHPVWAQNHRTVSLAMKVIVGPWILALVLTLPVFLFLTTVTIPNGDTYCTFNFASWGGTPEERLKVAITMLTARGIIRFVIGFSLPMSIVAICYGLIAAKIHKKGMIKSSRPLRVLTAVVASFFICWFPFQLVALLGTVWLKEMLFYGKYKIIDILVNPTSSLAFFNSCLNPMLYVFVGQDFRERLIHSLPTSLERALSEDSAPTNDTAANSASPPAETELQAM
UniProt P21462, whole entry: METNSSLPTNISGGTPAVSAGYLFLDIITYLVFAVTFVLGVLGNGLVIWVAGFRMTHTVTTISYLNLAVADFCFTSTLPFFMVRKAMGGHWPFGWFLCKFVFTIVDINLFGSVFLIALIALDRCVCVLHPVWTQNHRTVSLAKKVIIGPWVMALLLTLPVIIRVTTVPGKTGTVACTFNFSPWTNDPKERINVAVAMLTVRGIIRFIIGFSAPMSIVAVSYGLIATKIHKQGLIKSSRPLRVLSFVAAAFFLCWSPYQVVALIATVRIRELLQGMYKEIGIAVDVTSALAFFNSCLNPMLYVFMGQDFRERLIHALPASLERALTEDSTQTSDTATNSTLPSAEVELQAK

Experiments:
[1] = biological target: human FPR2 (Homo sapiens (Human), UniProt P25090); experiment: FPR2 cyclic adenosine monophosphate (cAMP) assay; conditions: read-out: hFPR2 cAMP2 EC50; CHO cells overexpressing human FPR2; forskolin 5 µM; inhibition of cAMP production
[2] = biological target: human FPR1 (Homo sapiens (Human), UniProt P21462); experiment: FPR1 cyclic adenosine monophosphate (cAMP) assay; conditions: read-out: hFPR1 cAMP EC50; CHO cells overexpressing human FPR1; forskolin 10 µM; inhibition of cAMP production

Compound	EC50 [1]	EC50 [2]
COc1cc(F)c([C@@H]2CN(c3cccn(CC4CC4)c3=O)C(=O)[C@H]2NC(=O)c2ccc(OC(F)F)cc2)c(F)c1	6.2 nM	13 nM
COCC(C(=O)N(C)C)n1ccc(C)c(N2C[C@@H](c3ccc(OC)cc3)[C@H](NC(=O)c3ccc(OC(F)(F)F)cc3)C2=O)c1=O (stereo partly drawn)	3.8 nM	0.1 nM
COc1cc(F)c([C@@H]2CN(c3nccc(N4C[C@@H]5C[C@H]4CN5C)c3C(F)(F)F)C(=O)[C@H]2NC(=O)c2ccc(OC(F)F)cc2)c(F)c1	6.3 nM	460 nM
COc1cc(F)c([C@@H]2CN(c3cccc(OCCO)n3)C(=O)[C@H]2NC(=O)c2ccc(OC(F)F)cc2)c(F)c1	1.6 nM	750 nM
COc1cc(F)c([C@@H]2CN(c3ccnc(N4CCN(C)CC4)c3C#N)C(=O)[C@H]2NC(=O)c2ccc(OC(F)F)cc2)c(F)c1	1.8 nM	500 nM
COc1ccc([C@@H]2CN(c3cccn(CCO)c3=O)C(=O)[C@H]2NC(=O)c2ccc(OC(F)F)cc2)cc1	2 nM	12 nM
COc1cc(F)c([C@H]2[C@H](NC(=O)c3ccc(OC(F)(F)F)cc3)C(=O)N(c3cccn(CCO)c3=O)[C@@H]2C)c(F)c1	7.5 nM	370 nM
CCn1cccc(N2C[C@@H](c3ccc(Cl)cc3)[C@H](NC(=O)c3ccc(OC(F)F)cc3)C2=O)c1=O	3.9 nM	7 nM
COc1cc(C2CCN(CCO)CC2)nc(N2C[C@@H](c3c(F)cc(OC)cc3F)[C@H](NC(=O)c3ccc(OC(F)F)cc3)C2=O)c1	2.7 nM	> 5000 nM
